In patent publication US20040248990A1, “Ketone peroxide compositions” (priority 2002, published 2004):
Some compounds may have been tested in ways that are not shown here.

Experiment: Solubility of Type 4 ketone peroxides in different solvents (Table I)
Conditions: at 20° C.

CCCCCC(C)(OO)OO
Solubility in isodecane (apolar isododecane): >45 g/100 g
Solubility in dimethyl-phthalate (polar dimethylphthalate): >30 g/100 g
